{"source": "patent US7799788B2", "about": "“Method of treating chronic myelogenous leukemia cells” (University of South Florida, priority 2006, dated 2010)", "key": {"[1]": {"test_system": "BaF3/Bcr-Abl cells", "test": "Apoptosis by Annexin-V staining, BaF3/Bcr-Abl cells", "format": "cell-based, mouse", "conditions": "20 nM dasatinib, 48 hours"}, "[2]": {"test_system": "unmutated Bcr-Abl", "test": "Bcr-Abl auto-phosphorylation (immunoprecipitation/immunoblot), BaF3/Bcr-Abl cells", "format": "cell-based, mouse", "conditions": "5.0 nM dasatinib, 24 hours"}, "[3]": {"test_system": "Bcr-AblE255K", "test": "Bcr-Abl auto-phosphorylation (immunoprecipitation/immunoblot), BaF3/Bcr-AblE255K cells", "format": "cell-based, mouse", "conditions": "20 nM dasatinib, 24 hours; compared with 5.0 nM on unmutated Bcr-Abl"}, "[4]": {"test_system": "Bcr-AblT315I", "test": "Bcr-Abl autophosphorylation, BaF3/Bcr-AblT315I cells", "format": "cell-based, mouse", "conditions": "data not shown"}, "[5]": {"test_system": "BaF3/Bcr-AblT315I cells", "conditions": "dasatinib 2.0 μM"}}, "data": [{"smiles": "Cc1nc(Nc2ncc(C(=O)Nc3c(C)cccc3Cl)s2)cc(N2CCN(CCO)CC2)n1", "note": "[dasatinib, N-(2-chloro-6-methylphenyl)-2-[[6-[4-(2-hydroxyethyl)-1-piperazinyl]-2-methyl-4-pyrimidinyl]amino]-5-thiazolecarboxamide]", "values": [{"measurement": "apoptosis of BaF3/Bcr-Abl cells", "setting": "[1]", "value": "more than 70%"}, {"measurement": "auto-phosphorylation of the unmutated Bcr-Abl", "setting": "[2]", "value": "markedly inhibited"}, {"measurement": "auto-phosphorylation of Bcr-AblE255K", "setting": "[3]", "value": "achieved a similar effect"}, {"measurement": "autophosphorylation of Bcr-Abl in BaF3/Bcr-AblT315I cells", "setting": "[4]", "value": "did not appreciably inhibit"}, {"measurement": "sensitivity of BaF3/Bcr-AblT315I cells to dasatinib-induced apoptosis", "setting": "[5]", "value": "resistant"}]}]}
